Holding throughout (format): cell-based
Assay [1] deals with Glutamate NMDA receptor; Grin1/Grin2a (Rattus norvegicus) (UniProt P35439+Q00959). Kind of assay: Agonist activity at rat GluN1/GluN2A NMDA receptor expressed in Xenopus oocytes assessed as maximal relative efficacy measured after 4 days in presence of L-glutamte by two-electrode voltage-clamp recording assay relative to glycine. The following applies: Oocyte, filed as agonist, time 4.0 day. Put shortly: (§1)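 Rat GluN1 plus GluN2A or GluN2B cRNA (1:2) in Xenopus oocytes. TEVC at −40 mV, room temperature, 2–4 days post-injection. Bath: 90 mM NaCl, 1 mM KCl, 10 mM HEPES, 0.5 mM BaCl2, 0.01 mM EDTA, pH 7.4. Oocytes were BAPTA-injected before recording. Agonist applied with 300 μM L-Glu throughout. […] NR means <5% response at the stated concentration. 3–14 oocytes.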
For orientation: Two-electrode voltage clamp holds a large cell at a set potential and records current.

Sequences of proteins named here, by UniProt entry; tags and fusion partners are left off. A change or cut given only in a name is not applied to a line headed by its entry.
UniProt Q00959, whole entry, looked up: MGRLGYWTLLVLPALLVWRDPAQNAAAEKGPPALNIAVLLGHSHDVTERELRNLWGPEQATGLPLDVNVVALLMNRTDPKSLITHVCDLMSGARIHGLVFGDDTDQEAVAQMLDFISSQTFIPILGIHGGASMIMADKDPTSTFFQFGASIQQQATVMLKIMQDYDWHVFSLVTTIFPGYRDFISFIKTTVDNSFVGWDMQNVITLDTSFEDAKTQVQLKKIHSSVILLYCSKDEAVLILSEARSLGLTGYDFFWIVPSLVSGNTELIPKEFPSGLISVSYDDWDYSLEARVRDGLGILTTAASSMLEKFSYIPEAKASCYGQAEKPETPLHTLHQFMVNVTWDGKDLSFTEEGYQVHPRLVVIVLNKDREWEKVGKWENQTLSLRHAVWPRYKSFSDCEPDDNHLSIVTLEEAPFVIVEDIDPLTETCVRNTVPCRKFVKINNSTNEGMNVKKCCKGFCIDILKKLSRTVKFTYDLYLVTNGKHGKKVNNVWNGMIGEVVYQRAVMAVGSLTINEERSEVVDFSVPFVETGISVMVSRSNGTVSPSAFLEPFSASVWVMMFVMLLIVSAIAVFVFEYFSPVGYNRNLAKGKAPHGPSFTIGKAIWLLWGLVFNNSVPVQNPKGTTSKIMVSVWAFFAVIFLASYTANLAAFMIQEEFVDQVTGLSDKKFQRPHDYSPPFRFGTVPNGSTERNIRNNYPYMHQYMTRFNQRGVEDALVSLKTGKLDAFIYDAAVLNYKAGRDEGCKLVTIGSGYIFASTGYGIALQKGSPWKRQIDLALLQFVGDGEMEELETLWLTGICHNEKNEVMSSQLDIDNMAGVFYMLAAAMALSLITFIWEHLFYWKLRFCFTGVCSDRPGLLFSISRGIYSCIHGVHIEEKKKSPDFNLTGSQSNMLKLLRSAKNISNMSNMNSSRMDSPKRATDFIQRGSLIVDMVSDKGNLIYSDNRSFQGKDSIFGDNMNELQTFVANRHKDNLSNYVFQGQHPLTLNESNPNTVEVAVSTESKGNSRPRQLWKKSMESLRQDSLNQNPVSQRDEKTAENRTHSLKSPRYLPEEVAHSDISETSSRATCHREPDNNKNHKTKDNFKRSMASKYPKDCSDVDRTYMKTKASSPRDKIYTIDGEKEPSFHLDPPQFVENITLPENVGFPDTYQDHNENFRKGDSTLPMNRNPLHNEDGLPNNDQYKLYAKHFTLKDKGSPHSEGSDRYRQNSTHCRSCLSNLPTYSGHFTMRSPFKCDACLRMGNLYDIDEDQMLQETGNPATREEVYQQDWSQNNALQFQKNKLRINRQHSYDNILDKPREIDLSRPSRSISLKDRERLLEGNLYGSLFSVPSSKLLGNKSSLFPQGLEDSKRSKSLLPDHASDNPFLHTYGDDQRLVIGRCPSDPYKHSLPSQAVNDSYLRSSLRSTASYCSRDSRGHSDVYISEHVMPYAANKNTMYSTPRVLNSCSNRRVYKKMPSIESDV
UniProt Q00960, whole entry, looked up: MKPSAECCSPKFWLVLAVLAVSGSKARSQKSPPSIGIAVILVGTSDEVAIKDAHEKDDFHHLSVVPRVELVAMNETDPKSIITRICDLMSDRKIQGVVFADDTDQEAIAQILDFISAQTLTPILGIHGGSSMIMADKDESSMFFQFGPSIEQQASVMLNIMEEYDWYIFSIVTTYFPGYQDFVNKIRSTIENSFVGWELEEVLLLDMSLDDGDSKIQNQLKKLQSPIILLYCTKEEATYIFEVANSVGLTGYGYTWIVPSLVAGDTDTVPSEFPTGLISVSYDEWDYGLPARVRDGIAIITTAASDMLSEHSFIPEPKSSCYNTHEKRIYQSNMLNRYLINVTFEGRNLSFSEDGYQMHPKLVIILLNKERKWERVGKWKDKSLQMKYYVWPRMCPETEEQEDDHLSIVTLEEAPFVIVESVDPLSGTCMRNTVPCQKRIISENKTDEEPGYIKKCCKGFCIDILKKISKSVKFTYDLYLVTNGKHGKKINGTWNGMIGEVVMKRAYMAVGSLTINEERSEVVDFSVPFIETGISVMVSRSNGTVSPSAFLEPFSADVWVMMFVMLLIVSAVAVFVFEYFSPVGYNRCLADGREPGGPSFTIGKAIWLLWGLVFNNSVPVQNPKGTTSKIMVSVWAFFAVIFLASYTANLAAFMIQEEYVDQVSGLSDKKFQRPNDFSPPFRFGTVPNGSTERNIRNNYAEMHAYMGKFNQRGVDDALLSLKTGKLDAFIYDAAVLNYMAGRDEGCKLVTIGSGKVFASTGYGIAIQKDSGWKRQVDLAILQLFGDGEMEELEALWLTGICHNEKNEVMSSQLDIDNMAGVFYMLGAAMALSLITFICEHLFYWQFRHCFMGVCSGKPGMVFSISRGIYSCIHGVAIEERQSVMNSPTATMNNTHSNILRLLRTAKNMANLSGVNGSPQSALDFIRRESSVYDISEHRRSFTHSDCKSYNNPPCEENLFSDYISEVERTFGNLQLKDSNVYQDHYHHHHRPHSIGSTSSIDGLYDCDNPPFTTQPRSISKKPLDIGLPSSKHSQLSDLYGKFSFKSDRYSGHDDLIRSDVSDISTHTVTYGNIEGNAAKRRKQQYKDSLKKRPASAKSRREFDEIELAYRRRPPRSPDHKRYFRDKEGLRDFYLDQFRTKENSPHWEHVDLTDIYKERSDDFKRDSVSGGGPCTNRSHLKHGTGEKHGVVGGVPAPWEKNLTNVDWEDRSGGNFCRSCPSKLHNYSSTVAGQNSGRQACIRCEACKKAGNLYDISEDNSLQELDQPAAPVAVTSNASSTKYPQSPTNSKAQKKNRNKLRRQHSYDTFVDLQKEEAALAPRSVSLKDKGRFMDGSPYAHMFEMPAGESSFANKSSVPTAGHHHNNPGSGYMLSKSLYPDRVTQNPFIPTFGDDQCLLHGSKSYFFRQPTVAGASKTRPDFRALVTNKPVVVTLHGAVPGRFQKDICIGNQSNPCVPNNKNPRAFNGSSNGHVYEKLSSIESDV
UniProt Q00961: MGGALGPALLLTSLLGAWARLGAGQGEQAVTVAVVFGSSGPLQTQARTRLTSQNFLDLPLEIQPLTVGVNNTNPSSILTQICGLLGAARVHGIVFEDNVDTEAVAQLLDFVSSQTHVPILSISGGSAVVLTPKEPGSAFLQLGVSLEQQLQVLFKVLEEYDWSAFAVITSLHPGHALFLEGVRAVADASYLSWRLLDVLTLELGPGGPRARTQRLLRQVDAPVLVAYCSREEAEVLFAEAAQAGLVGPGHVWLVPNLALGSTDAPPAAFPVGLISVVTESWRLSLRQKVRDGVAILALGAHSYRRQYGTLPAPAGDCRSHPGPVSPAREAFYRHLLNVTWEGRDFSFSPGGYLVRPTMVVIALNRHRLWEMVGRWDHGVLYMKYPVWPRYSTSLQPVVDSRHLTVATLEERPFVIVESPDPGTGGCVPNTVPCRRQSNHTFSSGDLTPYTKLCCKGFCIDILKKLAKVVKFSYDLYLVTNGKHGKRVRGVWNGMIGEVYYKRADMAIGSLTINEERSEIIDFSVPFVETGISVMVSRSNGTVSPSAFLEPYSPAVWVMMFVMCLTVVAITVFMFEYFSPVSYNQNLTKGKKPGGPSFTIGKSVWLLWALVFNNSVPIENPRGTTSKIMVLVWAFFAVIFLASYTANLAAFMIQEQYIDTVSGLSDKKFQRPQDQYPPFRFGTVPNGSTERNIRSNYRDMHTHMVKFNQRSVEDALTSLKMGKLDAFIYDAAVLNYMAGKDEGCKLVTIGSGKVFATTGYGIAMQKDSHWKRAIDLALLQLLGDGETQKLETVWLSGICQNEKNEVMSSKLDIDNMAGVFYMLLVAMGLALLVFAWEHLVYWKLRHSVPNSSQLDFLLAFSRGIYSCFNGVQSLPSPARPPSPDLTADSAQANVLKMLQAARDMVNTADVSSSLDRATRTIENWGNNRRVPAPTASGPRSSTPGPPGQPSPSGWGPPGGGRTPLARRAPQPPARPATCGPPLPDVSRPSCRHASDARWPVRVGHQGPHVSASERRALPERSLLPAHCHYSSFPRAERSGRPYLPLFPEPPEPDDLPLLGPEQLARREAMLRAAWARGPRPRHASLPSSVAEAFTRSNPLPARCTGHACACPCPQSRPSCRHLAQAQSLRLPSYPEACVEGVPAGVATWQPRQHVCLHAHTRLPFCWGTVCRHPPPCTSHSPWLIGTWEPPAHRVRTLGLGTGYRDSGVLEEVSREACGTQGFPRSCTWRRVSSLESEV
UniProt Q62645, whole entry, looked up: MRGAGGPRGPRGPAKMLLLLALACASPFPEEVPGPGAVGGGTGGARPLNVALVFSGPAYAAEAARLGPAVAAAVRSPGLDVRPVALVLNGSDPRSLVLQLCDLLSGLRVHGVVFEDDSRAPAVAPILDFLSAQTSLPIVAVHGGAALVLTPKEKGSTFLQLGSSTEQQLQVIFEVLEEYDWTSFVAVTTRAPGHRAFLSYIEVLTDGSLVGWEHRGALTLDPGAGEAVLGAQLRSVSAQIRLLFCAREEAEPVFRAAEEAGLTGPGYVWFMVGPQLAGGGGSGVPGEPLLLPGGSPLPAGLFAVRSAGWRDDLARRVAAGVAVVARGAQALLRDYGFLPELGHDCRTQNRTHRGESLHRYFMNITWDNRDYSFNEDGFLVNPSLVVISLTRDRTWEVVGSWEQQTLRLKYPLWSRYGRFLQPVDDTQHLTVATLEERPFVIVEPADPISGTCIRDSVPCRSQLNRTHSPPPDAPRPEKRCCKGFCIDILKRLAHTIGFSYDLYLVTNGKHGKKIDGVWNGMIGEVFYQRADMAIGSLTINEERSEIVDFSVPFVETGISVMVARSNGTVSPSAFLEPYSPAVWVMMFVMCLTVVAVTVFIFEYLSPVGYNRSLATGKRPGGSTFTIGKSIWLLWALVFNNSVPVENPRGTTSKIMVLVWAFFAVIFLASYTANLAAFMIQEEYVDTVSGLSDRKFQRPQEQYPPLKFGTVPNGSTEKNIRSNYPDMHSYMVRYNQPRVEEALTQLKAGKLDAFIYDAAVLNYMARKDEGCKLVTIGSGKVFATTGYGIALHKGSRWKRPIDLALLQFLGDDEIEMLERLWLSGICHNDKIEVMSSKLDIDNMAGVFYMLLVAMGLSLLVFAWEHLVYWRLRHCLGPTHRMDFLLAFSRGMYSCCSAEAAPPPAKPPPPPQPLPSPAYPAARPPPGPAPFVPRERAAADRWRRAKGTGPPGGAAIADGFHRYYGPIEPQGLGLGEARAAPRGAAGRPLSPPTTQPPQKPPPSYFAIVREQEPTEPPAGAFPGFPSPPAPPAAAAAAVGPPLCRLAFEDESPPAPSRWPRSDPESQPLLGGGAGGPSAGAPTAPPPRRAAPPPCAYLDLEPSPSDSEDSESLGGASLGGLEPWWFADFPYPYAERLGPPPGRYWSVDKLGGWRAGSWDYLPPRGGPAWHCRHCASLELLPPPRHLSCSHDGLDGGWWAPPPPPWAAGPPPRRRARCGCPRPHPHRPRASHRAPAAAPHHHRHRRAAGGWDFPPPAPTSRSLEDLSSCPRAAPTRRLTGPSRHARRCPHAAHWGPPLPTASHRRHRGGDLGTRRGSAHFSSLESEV

The target of assay [2] is Glutamate NMDA receptor; Grin1/Grin2b (Rattus norvegicus) (UniProt P35439+Q00960). Put plainly: Agonist activity at rat GluN1/GluN2B NMDA receptor expressed in Xenopus oocytes assessed as maximal relative efficacy measured at 300 uM after 4 days in presence of L-glutamte by two-electrode voltage-clamp recording assay relative to glycine. The following applies: Oocyte, time 4.0 day. Put shortly:
as §1

The target of assay [3] is Glutamate NMDA receptor; Grin1/Grin2c (Rattus norvegicus) (UniProt P35439+Q00961). Kind of assay: Agonist activity at rat GluN1/GluN2C NMDA receptor expressed in Xenopus oocytes assessed as maximal relative efficacy measured after 4 days in presence of L-glutamte by two-electrode voltage-clamp recording assay relative to glycine. The following applies: Oocyte, filed as agonist, time 4.0 day. Put shortly: (§2)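 Xenopus oocytes were injected with rat GluN1 and GluN2C or GluN2D cRNA (1:2) and recorded by TEVC 2–4 days later at −40 mV, room temperature, pH 7.4 HEPES/NaCl/BaCl2 saline. Concentration-response with 300 μM L-Glu present. […] NR means <5% response at the concentration given. DMSO ≤0.5%. 3–14 oocytes.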

The target in assay [4] is Ionotropic glutamate receptor NMDA 1/2D (Rattus norvegicus) (UniProt P35439+Q62645). Put plainly: Agonist activity at rat GluN1/GluN2D NMDA receptor expressed in Xenopus oocytes assessed as maximal relative efficacy measured after 4 days in presence of L-glutamte by two-electrode voltage-clamp recording assay relative to glycine. The following applies: Oocyte, time 4.0 day. Put shortly:
as §2

From ChEMBL document CHEMBL5038630 (J Med Chem, 2022) come the findings set out here.

With `CCc1ccccc1-c1ccc(C(=O)NC[C@@H](N)C(=O)O)o1`, the Rmax in assay [1] was 40%; in assay [2], below 5%; in assay [3], 52%; in assay [4], 11%.
